What was measured:
[1] = Study 5B: four week intravenous toxicity study in rats; conditions: 45 mg/kg dose group
[2] = Study 1B: dose-range-finding single dose intravenous toxicity study in rats; conditions: 60 mg/kg dose group
[3] = Study 6B: two week intravenous repetitive dose toxicity study in rats; conditions: 45 mg/kg up to twice daily for 14 days
[4] = Study 2A: repetitive weekly intravenous toxicity study in dogs; conditions: 5, 15, 35 mg/kg weekly x 4
[5] = Study 1A: repetitive weekly intravenous toxicity study in rats

## CC1(C)CCC2=C(O1)c1ccccc1C(=O)C2=O [β-lapachone, 3,4-dihydro-2,2-dimethyl-2H-naphtho [1,2-b]pyran-5,6-dione]
[1]
  mortality: no mortality
[2]
  mortality: no mortality
[3]
  overall outcome: clinical signs of toxicity including lower body weight gains and food consumption
[4]
  mortality: no early deaths
[5]; high dose animals
  histopathological findings: hemosiderosis and extramedullary hematopoiesis in liver and spleen
[5]; high dose animals, Day 2 after first dose, normal on Day 23
  CK and AST: Slight increases
[5]; low- (10 mg/kg) and mid-dose (25 mg/kg) toxicology groups
  mortality and clinical signs: no mortality or clinical signs of toxicity

Reference: US20050187288A1, “Beta-lapachone and methods of treating cancer” (priority 2004, published 2005)
